Measurements from PMC8308830, “Single-Agent and Fixed-Dose Combination HIV-1 Protease Inhibitor Drugs in Fission Yeast (Schizosaccharomyces pombe)” (Pathogens, 2021).

Assays:
HIV-1 PR [1] = biological target: T1, HIV-1 PR (Human immunodeficiency virus type 1 group M subtype B, UniProt P12497); conditions: 150 μM drug; G31 cells; 20 h post-gene induction
HIV-1 PR [2] = biological target: T1, HIV-1 PR; experiment: cell-based; conditions: EC50 in Fission Yeast /Pure Compound, PR-on RE294 cells, growth (OD650) at 72 h post-gene induction relative to PR-off cells

## CC(C)CN(C[C@@H](O)[C@H](Cc1ccccc1)NC(=O)O[C@H]1CCOC1)S(=O)(=O)c1ccc(N)cc1 [APV, Amprenavir]
HIV-1 PR [1]
  inhibition of HIV-1 PR proteolytic cleavage of GFP-MA↓CA-Vpr (Vpr pattern vs GFP pattern): suppressed the PR activities

## Cc1cccc(C)c1OCC(=O)N[C@@H](Cc1ccccc1)[C@@H](O)C[C@H](Cc1ccccc1)NC(=O)[C@H](C(C)C)N1CCCNC1=O [LPV, Lopinavir]
HIV-1 PR [2]
  EC50: 4.59 ± 0.06 µM
